This note sets out measurements from US20140296484A1, “Cyclin Based Inhibitors of CDK2 and CDK4” (University of South Carolina, priority 2013, published 2014).

Chains of the proteins cited; added tags and fusions are not shown.
UniProt P24385, whole entry: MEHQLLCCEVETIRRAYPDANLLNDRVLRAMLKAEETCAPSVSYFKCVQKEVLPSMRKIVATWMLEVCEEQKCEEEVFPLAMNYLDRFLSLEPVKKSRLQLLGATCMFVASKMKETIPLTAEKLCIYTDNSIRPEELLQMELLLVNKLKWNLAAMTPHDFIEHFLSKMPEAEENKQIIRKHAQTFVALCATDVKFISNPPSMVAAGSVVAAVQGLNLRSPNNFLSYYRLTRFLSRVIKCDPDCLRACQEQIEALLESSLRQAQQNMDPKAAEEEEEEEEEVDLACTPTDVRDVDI

The test deals with CDK4/Cyclin D1 (Homo sapiens, UniProt P24385). In words: In vitro kinase assay, 32P filter capture with GST-Rb substrate. The format is biochemical.

Molecules are shown by their SMILES.

As a reminder, the IC50 is the midpoint of a concentration-inhibition curve. A low value points to higher potency.

The compound `CC[C@H](C)[C@H](NC(=O)[C@H](CC(C)C)NC(=O)[C@H](CCCNC(=N)N)NC(=O)[C@@H](N)CCCNC(=N)N)C(=O)N[C@@H](Cc1ccc(F)cc1)C(N)=O` [RRLIpfF] came in with an IC50 of 250 µM.
